PubChem BioAssay (NCI)
Some of these compounds have results that are not shown, active ones among them.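 Five concentrations, 48 hours, 96-well plates. GI50 marks 50% less growth. Definition used: TGI = concentration required for complete inhibition of growth.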

Columns and labels:
Test in all cases: NCI tumour cell line growth inhibition, 48 h; in the data active = GI50 below about 0.43 µM; inactive = the rest
[1] = test system: BT-549 breast
[2] = test system: MOLT-4 leukemia
[3] = test system: EKVX NSCLC
[4] = test system: UACC-62 melanoma
[5] = test system: OVCAR-5 ovarian
[6] = test system: SK-MEL-5 melanoma
[7] = test system: HCT-116 colon
[8] = test system: SF-539 CNS
[9] = test system: UACC-257 melanoma
[10] = test system: NCI-H226 lung
[11] = test system: CCRF-CEM leukemia
[12] = test system: A549 NSCLC
[13] = test system: SF-295 CNS
[14] = test system: CAKI-1 renal
[15] = test system: SK-MEL-28 melanoma
[16] = test system: NCI-H460 lung
[17] = test system: A498 renal
[18] = test system: MDA-MB-435
[19] = test system: SN12C renal
[20] = test system: OVCAR-3 ovarian
[21] = test system: TK-10 renal
[22] = test system: SNB-75 CNS
[23] = test system: NCI-H23 lung
[24] = test system: T-47D breast
[25] = test system: K-562 leukemia
[26] = test system: MCF7 breast
[27] = test system: UO-31 renal
[28] = test system: HCT-15 colon
[29] = test system: HL-60(TB) leukemia
[30] = test system: HS 578T breast
[31] = test system: RPMI-8226 leukemia
[32] = test system: U251 CNS
[33] = test system: NCI/ADR-RES ovarian
[34] = test system: HCC-2998 colon
[35] = test system: NCI-H522 lung
[36] = test system: SR leukemia
[37] = test system: SF-268 CNS
[38] = test system: SW-620 colon
[39] = test system: HT29 colon
[40] = test system: OVCAR-8 ovarian
[41] = test system: LOX IMVI melanoma
[42] = test system: MALME-3M melanoma
[43] = test system: SNB-19 CNS
[44] = test system: MDA-N
[45] = test system: 786-0 renal
[46] = test system: SK-OV-3 ovarian
[47] = test system: SK-MEL-2 melanoma
[48] = test system: RXF 393 renal
[49] = test system: MDA-MB-231 breast
[50] = test system: PC-3 prostate
[51] = test system: DU-145 prostate
[52] = test system: M14 melanoma
[53] = test system: KM12 colon
[54] = test system: OVCAR-4 ovarian
[55] = test system: ACHN renal
[56] = test system: HOP-62 NSCLC

C=C(C)C#CC(O)(C(=O)OC1CN2CCC1CC2)C1CCCCC1 (configuration not stated)
> 100 µM: TGI [1] | TGI [2] | TGI [3] | TGI [4] | TGI [5] | TGI [6] | TGI [7] | TGI [8] | TGI [9] | TGI [10] | TGI [11] | TGI [12] | TGI [13] | TGI [14] | TGI [15] | TGI [16] | TGI [17] | TGI [18] | TGI [19] | TGI [20] | TGI [21] | TGI [22] | TGI [23] | TGI [24] | TGI [25] | TGI [26] | TGI [27] | TGI [28] | TGI [29] | TGI [30] | TGI [31] | TGI [32] | TGI [33] | TGI [34] | TGI [35] | TGI [36] | TGI [37] | TGI [38] | TGI [39] | TGI [40] | TGI [41] | TGI [42] | TGI [43] | TGI [44] | TGI [45] | TGI [46] | TGI [47] | TGI [48] | TGI [49] | TGI [50] | TGI [51] | TGI [52] | TGI [53] | TGI [54] | TGI [55] | TGI [56]
inactive: GI50 [1] > 100 µM | GI50 [2] > 100 µM | GI50 [3] > 100 µM | GI50 [4] > 100 µM | GI50 [5] > 100 µM | GI50 [6] > 100 µM | GI50 [7] 12.4 µM | GI50 [8] > 100 µM | GI50 [9] > 100 µM | GI50 [10] > 100 µM | GI50 [11] > 100 µM | GI50 [12] > 100 µM | GI50 [13] > 100 µM | GI50 [14] > 100 µM | GI50 [15] > 100 µM | GI50 [16] > 100 µM | GI50 [17] > 100 µM | GI50 [18] > 100 µM | GI50 [19] > 100 µM | GI50 [20] > 100 µM | GI50 [21] > 100 µM | GI50 [22] > 100 µM | GI50 [23] > 100 µM | GI50 [24] > 100 µM | GI50 [25] > 100 µM | GI50 [26] > 100 µM | GI50 [27] 64.4 µM | GI50 [28] > 100 µM | GI50 [29] > 100 µM | GI50 [30] 59.1 µM | GI50 [31] > 100 µM | GI50 [32] > 100 µM | GI50 [33] > 100 µM | GI50 [34] > 100 µM | GI50 [35] > 100 µM | GI50 [36] > 100 µM | GI50 [37] > 100 µM | GI50 [38] > 100 µM | GI50 [39] > 100 µM | GI50 [40] > 100 µM | GI50 [41] > 100 µM | GI50 [42] > 100 µM | GI50 [43] > 100 µM | GI50 [44] > 100 µM | GI50 [45] > 100 µM | GI50 [46] > 100 µM | GI50 [47] > 100 µM | GI50 [48] 87.6 µM | GI50 [49] > 100 µM | GI50 [50] > 100 µM | GI50 [51] > 100 µM | GI50 [52] > 100 µM | GI50 [53] > 100 µM | GI50 [54] > 100 µM | GI50 [55] > 100 µM | GI50 [56] > 100 µM
